Reference: patent publication US11767322B2 (BRISTOL-MYERS SQUIBB COMPANY, priority 2020, dated 2023)
Read-outs that look alike come from different tables or passages of the source.

System: MLKL phosphorylation in HT29-L23 human colorectal adenocarcinoma cells
Assay: MLKL phosphorylation high-content assay
Type: cell-based

| SMILES | IC50 (HT29-L23 cells, necroptosis induced with TNFα, SMAC mimetic and Z-VAD, 6 h, maximal inhibition defined by Nec1s, read-out: pMLKL IC50) | IC50 (Homo sapiens, read-out: pMLKL IC50, Table 23, representative compounds from WO2018/148626) |
| --- | --- | --- |
| COc1c(-c2ccc(C)c(C(=O)NCC[C@H](O)c3ccc(Cl)cc3)c2F)ccn2nc(N)nc12 (single isomer, unassigned; enantiomer 2) [Example 136] | 1.4 nM | – |
| COc1ncc(-c2ccn3nc(N)nc3c2)cc1C(=O)NCC[C@H](O)c1ccc(Cl)cc1 [Example 157] | – | 115 nM |
